Apparent affinities of Ab-14 variants for a coronavirus HR2 peptide

Values reported by Engelhart et al. 2022, doi:10.1038/s41597-022-01779-4 (FLAb copy).

The target is the same throughout: PDVDLGDISGINAS, from the HR2 region of SARS-CoV-2 spike.

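The parent was found by panning a naive human phage display library on the peptide. Variants in AAYL50 differ from the parent at up to three CDR positions; double and triple changes were sampled at random. AlphaSeq pools MATa yeast showing the antibodies with MATalpha yeast showing the peptide. Pairs that bind mate more often; barcode pairs of the diploids are counted by sequencing. Scores were corrected for input abundance and mapped to Kd with protein pairs of known affinity run in the same pool. There are three technical replicates.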

Ab-14 is the parent antibody, in scFv form: VH, then a 15-residue (Gly4Ser)3 linker, then VL. The heavy chain is unchanged in all variants.
VH: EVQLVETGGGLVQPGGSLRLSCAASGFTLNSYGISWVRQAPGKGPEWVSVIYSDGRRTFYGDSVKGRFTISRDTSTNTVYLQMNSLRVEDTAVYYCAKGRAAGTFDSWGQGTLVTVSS
VL: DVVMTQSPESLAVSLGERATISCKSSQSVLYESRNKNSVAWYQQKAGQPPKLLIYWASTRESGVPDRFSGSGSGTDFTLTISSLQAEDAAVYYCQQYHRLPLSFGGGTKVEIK

Variants are written as CDR1, CDR2 and CDR3 of the light chain (limits as in the source). Parent: KSSQSVLYESRNKNSVA, WASTRES, QQYHRLPLS. Numbers give log10(Kd / nM), so 0 is 1 nM and 3 is 1 µM. Smaller is tighter. "nd" means that the variant was in the library but no mating with the target was seen in that replicate; the authors take this as a sign of poor binding, and no number exists. As a blank, each scFv also met three strains without target: over library AAYL50, 18% of these pairings were detected, typically at 4.19 and seldom below 2.99. For each scFv, signals with the empty controls are counted beside the result, with their mean in brackets. For reference, the parent read 0.65 as the reference entry and 1.68 as a member of this library.

CDR-L1	CDR-L2	CDR-L3	log10 Kd, replicates	signal with controls
SSLQSVLYESRNKNSVA	WASTRES	QQYHQLPLS	1.51 / 1.99 / 1.68	0/9
KSSQSVLYESRNKNSVA	WASQRFS	QQYHRPPLS	1.62 / 1.43 / 1.56	3/9 (4.15)
KSSQSGLYLSRNKNSVA	WARTRES	QQYHRLPLS	3.91 / nd / 3.06	5/9 (3.98)
KSSQSMLYESRNKNSVA	WASTRNS	WQYHRLPLS	nd / nd / nd	0/9
KSSDSVLYESREKNSVI	WASTRES	QQYHRLPLS	nd / nd / 3.47	3/9 (4.60)
KSSQSVLIESRNKNSVA	WAYSRES	QQYHRLPLS	2.47 / 2.81 / nd	2/9 (2.96)
QSSQSVLYESRNKNGVA	WAITRES	QQYHRLPLS	nd / nd / nd	1/9 (3.36)
KSSQSVLYESTNKNSVA	WASTRES	QQYHILPLS	0.61 / 0.76 / 0.70	1/9 (3.93)
KSSQSVLYESECKNSVA	WASTREF	QQYHRLPLS	1.15 / 1.26 / 1.05	2/9 (3.46)
ASSQQVLYESRAKNSVA	WASTRES	QQYHRLPLS	3.11 / 2.08 / 3.34	0/9
KSSQSVLYESRNKNSVA	WASTREL	QQYHCLPLS	0.49 / 0.76 / 0.67	0/9
KSSQSVSSESRNKNSVA	WASTREH	QQYHRLPLS	0.99 / 1.04 / 0.86	2/9 (2.19)
KSSQSVLYESFNKNSVA	FASTREC	QQYHRLPLS	2.40 / 2.18 / 2.36	1/9 (2.62)
KSSQSVLYEPRNKGSVA	WASTRES	QQYHRLQLS	0.91 / 1.05 / 1.15	1/9 (4.25)
KSSQSVLYESRNKNSVA	WASGRAS	KQYHRLPLS	nd / nd / nd	0/9
KSSQSVLYESRNANSVA	GASTRES	QQYHPLPLS	6.23 / 4.55 / 5.05	5/9 (4.56)
KSSQSVLYESRNCNSVA	DRSTRES	QQYHRLPLS	-0.45 / 0.23 / -0.01	5/9 (4.44)
GSSQWTLYESRNKNSVA	WASTRES	QQYHRLPLS	2.78 / 2.28 / 2.61	7/9 (4.42)
KSSQMMLYESRAKNSVA	WASTRES	QQYHRLPLS	0.94 / 1.12 / 1.10	1/9 (6.07)
KSSQSVLYESRNKNSVA	WVSTIES	QQYHRLPLF	nd / nd / nd	0/9
KISQQVLKESRNKNSVA	WASTRES	QQYHRLPLS	-0.09 / 0.19 / -0.06	1/9 (4.60)
KSSHSVLYESRNKNSVA	WASSRES	QQQHRLPLS	2.58 / 2.55 / 2.85	1/9 (5.72)
KSSQSVLHESRNKNSVA	QASTRES	QQYHRLPES	0.98 / 1.15 / 1.01	1/9 (3.99)
KSSQSVEYESRNKNSVA	WAKTRES	QQYHRLPIS	1.40 / 1.60 / 1.55	1/9 (3.68)
KSSQSVLYESRNKISVP	WASTRES	QQYHRLPSS	nd / nd / 5.79	3/9 (4.90)
KSSQSVLYESQSKNSVA	WASTRES	QQYHMLPLS	0.85 / 0.89 / 0.94	1/9 (4.88)
KSSQSVLYESRLKNSVA	WASTLES	QQYHRLELS	6.35 / 5.49 / nd	2/9 (4.24)
RSSQSVLYESRNKNSVA	WASTDES	QQYHRLWLS	nd / nd / nd	1/9 (4.82)
KSPMSVLYESRNKNSVA	WASTRES	QQYHRLPLS	1.94 / 1.78 / 2.05	1/9 (3.55)
KYSQSVQYESRNKNSVA	WASTRES	QQYHALPLS	0.52 / 0.77 / 0.75	1/9 (3.22)
KSSQSVLYESRNKNSVE	WASTRES	TQYHRRPLS	nd / nd / nd	0/9
KSSQSVLYESRNAMSVA	WASTRES	QQYHDLPLS	2.05 / 1.87 / 1.81	0/9
KSSQSVLYESRGKNSVA	WASTRES	QHYHRLPLS	2.16 / 2.16 / 2.46	1/9 (4.86)
KSSQSVLYMSRNKNSVA	WASTRES	QQYHRLPLS	1.88 / 1.71 / 1.73	0/9
KSSQSVFYPSRNKNSVA	WASTRES	QQYHRLPKS	nd / nd / nd	1/9 (3.29)
KSSQSVLYESCNKNSVA	WFSTRES	YQYHRLPLS	nd / nd / nd	3/9 (3.50)
KSSQSVLYESRCKNNVA	WASTRES	MQYHRLPLS	4.35 / 3.07 / 4.37	7/9 (4.81)
KSSQSVLYESRNKNSVA	WASTRES	QSYHLAPLS	nd / nd / nd	0/9
KSSQLVLYESYNKNSVA	MASTRES	QQYHRLPLS	1.79 / 1.39 / 1.44	1/9 (2.51)
VSSQSVLYESRNKNSVA	WASTRES	QGYHRLPSS	nd / nd / 2.58	0/9
KSSQSVLYESRNKNSVA	WASTRES	QSYHRLKLF	0.54 / 0.93 / 0.56	3/9 (4.74)
KSNQSVLPESRNKNSVA	WASTRES	QQYHRLPLS	2.93 / 2.83 / 2.59	3/9 (4.24)
KCSQSVLYESRNCNSVA	WAATRES	QQYHRLPLS	1.22 / 1.43 / 1.56	0/9
KSSISYLYESRNKHSVA	WASTRES	QQYHRLPLS	2.26 / 2.13 / 1.97	2/9 (4.49)
VSSQSVLYESRNKNSVA	WASTRES	TQYHRLPLP	nd / nd / nd	0/9
KSSQSVAYESRNKNSVA	WASTRES	QQYHRLLVS	3.74 / 3.03 / 4.98	2/9 (4.10)
KMSQSVLKESRNKNSVA	WASTRES	QQYTRLPLS	0.23 / 0.54 / 0.34	8/9 (4.48)
HWSQSVLYESYNKNSVA	WASTRES	QQYHRLPLS	0.70 / 0.85 / 0.88	4/9 (4.38)
KSSSSVLYESRNKNSVA	WDSTRES	QQYHRLPLC	0.97 / 1.00 / 1.00	3/9 (5.29)
KSSQSVLLESGNKNSVA	WASTDES	QQYHRLPLS	nd / nd / nd	0/9
KSSQSVLYESRNKHSVA	WVSHRES	QQYHRLPLS	2.63 / nd / nd	0/9
MSSQSVLYESRNDNSVA	WASTRVS	QQYHRLPLS	0.49 / 0.65 / 0.56	0/9

5 of these entries, quoted again:

CDR-L1	CDR-L2	CDR-L3	log10 Kd, replicates	signal with controls
KSSQSVLYMSRNKNSVA	WASTRES	QQYHRLPLS	1.88 / 1.71 / 1.73	0/9
KSSQSVLYESRNKNSVA	WASGRAS	KQYHRLPLS	nd / nd / nd	0/9
KSSQSVLYESRNKNSVA	WVSTIES	QQYHRLPLF	nd / nd / nd	0/9
HWSQSVLYESYNKNSVA	WASTRES	QQYHRLPLS	0.70 / 0.85 / 0.88	4/9 (4.38)
KSSQSVLYESRNAMSVA	WASTRES	QQYHDLPLS	2.05 / 1.87 / 1.81	0/9